Experimental data from patent US20020188202A1, “Method of diagnosis and treatment and related compositions and apparatus” (priority 1996, published 2002).
Read-outs that look alike come from different tables or passages of the source.

What was measured:
[1] = tested on: patients with MS-like syndrome associated with breast implants and cerebral vasospasm; details: for clinical and TCD improvement: 11 patients, Toradol IM then by mouth (10 patients), Nitroglycerine by spray and patch
[2] = tested on: patients with MS-like syndrome associated with breast implants and cerebral vasospasm; details: human, in vivo
[3] = tested on: whiplash patients with cerebral vasospasm
[4] = sublingual spray, continuous TCD

| Compound | clinical and TCD improvement [1] | gastritis ([1]; human, in vivo) | symptoms of fibromyalgia and fibromyositis ([1]; all patients who started treatment) | nitrite sensitivity [2] | intermittent syncope and episodic hemiplegic migraines ([3]; 2 patients, shortly into therapy) | P300 ([3]; 5 patients, during the course of treatment) | continued requirement of narcotics ([3]; 21 of the 38 on narcotics at start) | clinical improvement ([3]; after first administration, 38 whiplash patients) | symptoms of post-traumatic fibromyalgia and fibromyositis ([3]; four patients) | changes in pulse or blood pressure readings ([3]; generally no changes beyond this) | failures to treatment (patients) ([3]; of 38 patients) | TCD improvement ([3]; patients later identified as nitrite sensitive) | blood pressure changes including orthostatic changes ([3]; significance defined as 10 points or greater in systolic, diastolic or pulse) | response of single patients who are nitrite sensitive or unable to tolerate Nitroglycerine ([3]; single patients) | adverse reaction in single patients ([3]; single patients, listed as Nitrodur) | adverse reaction in single patients ([3]; single patients, listed as Nitroglycerine) | continued relaxation of the intracranial spasm identified out to [3, 4] | time of peak degree of relaxation [3, 4] [h] | time at which improvement in Mean Flow Velocities was shown ([3]; sublingual spray, continuously TCD monitored patients) [min] |
| --- | --- | --- | --- | --- | --- | --- | --- | --- | --- | --- | --- | --- | --- | --- | --- | --- | --- | --- | --- |
| O=C(c1ccccc1)c1ccc2n1CCC2C(=O)O (centres unmarked) [Toradol, ketorolac tromethamine] | consistent improvement clinically and with respect to the TCD | gastritis developed in all cases | – | – | – | – | – | – | – | – | – | – | – | – | – | – | – | – | – |
| O=[N+]([O-])OCC(CO[N+](=O)[O-])O[N+](=O)[O-] [Nitroglycerin] | dramatic clinical improvement in exam and clinical symptoms with resolution of vasospasm | – | resolved while on therapy and returned if they stopped therapy | no patients are found to be nitrite sensitive | complete resolution of both of these problems | shows improvement | No patients who are able to tolerate Nitroglycerine treatment continued to require narcotics | All patients showed clinical improvement | completely resolve | less than 5 points | 3 | 3 patients did not show significant TCD improvement | No blood pressure changes, including orthostatic changes, of significance | failed | one such episode is brought on | unable to tolerate | two | 1 | 15 |
